The chains behind the UniProt entries cited, without tags or fusion partners.
UniProt P97266, whole entry: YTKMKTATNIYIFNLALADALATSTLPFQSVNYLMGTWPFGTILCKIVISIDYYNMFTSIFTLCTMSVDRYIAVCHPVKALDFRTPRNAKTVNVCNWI
UniProt P41144, whole entry: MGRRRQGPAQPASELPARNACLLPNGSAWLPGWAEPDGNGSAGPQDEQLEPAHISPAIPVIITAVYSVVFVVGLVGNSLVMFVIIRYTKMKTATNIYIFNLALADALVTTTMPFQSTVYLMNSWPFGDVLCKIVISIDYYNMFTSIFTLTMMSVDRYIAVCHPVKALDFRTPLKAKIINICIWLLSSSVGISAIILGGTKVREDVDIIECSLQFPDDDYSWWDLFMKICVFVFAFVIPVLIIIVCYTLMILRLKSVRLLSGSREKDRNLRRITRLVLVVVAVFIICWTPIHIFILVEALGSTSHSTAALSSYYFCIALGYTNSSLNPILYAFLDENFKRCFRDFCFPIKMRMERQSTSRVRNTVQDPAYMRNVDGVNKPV

In ChEMBL document CHEMBL1131897:

How the values were obtained:
[1] = molecular target: Mu-type opioid receptor (Cavia porcellus) (UniProt P97266); test: [35S]GTP-gamma-S, induced maximal stimulation ( E max ) against Mu opioid receptor in guinea pig caudate membranes blocked with 6000 nM CTAP
[2] = molecular target: Opioid receptors; mu & delta (Homo sapiens) (UniProt P41143+P35372); test: Ratio of binding affinities (Mu/Delta)
[3] = molecular target: Mu-type opioid receptor (Cavia porcellus) (UniProt P97266); test: [35S]GTP-gamma-S, induced maximal stimulation ( E max )against Mu opioid receptor in guinea pig caudate membranes in unblocked condition
[4] = molecular target: Kappa-type opioid receptor (Cavia porcellus) (UniProt P41144); test: [35S]GTP-gamma-S, induced maximal stimulation ( E max )against Kappa opioid receptor in guinea pig caudate membranes blocked with 6 nM nor-BNI

C=CCN1CC[C@H](N(c2ccccc2)c2ccc(C(=O)N(CC)CC)cc2)[C@H](C)C1
Emax [1]: 85 nM
Ratio [2]: 470
Emax [3]: 126 nM
Emax [4]: 91 nM

C=CCN1CCC(N(c2ccccc2)c2ccc(C(=O)N(CC)CC)cc2)C(C)C1 (centres undefined)
Emax [1]: 55 nM
Ratio [2]: 102
Emax [3]: 63 nM
Emax [4]: 60 nM

C=CCN1CC[C@@H](N(c2ccccc2)c2ccc(C(=O)N(CC)CC)cc2)[C@@H](C)C1
Ratio [2]: > 72
